# Columns and labels:
# Type in all cases: cell-based, human
# SK-BR-3 cells [1] = experiment: Immunoblotting of cell lysates, SK-BR-3; settings: 50 nM antibody + heregulin 6.25 nM, 24 hours
# Experimental: Cells cultured to near confluence in 6 well plates were treated with lapatinib, HRG-β1 or antibodies as for proliferation assays. Following one or 24 hours incubation, cells were lysed using RIPA buffer (50 mM Tris, 150 mM NaCl, 0.5% sodium deoxycholate, 1% Triton X-100, 0.1% sodium dodecyl sulfate, 2 ug/mL aprotinin, 2 ug/mL leupeptin, 1 ug/mL pepstatin A, and 0.4 mg/mL pefabloc SC PLUS). Lysates were centrifuged for 20 minutes at 14,600 rpm at 4° C. and supernatants were collected. Protein concentrations in each lysate were determined using the BCA protein assay reagent (Pierce, catalog no. 23223). Total lysates were fractionated by SDS-PAGE and transferred onto polyvinylidene difluoride (PVDF) membranes (Millipore, catalog no. IPVH00010) or nitrocellulose membranes (Bio-Rad, catalog no 162.0145). Membranes were incubated with 5% bovine serum albumin in Tris-buffered saline with 0.1% Tween (TBST, pH 8.0) for 1 hour following transfer to block non-specific binding sites. Blocked membranes were incubated with primary antibodies overnight at 4° C. with agitation. […] Following incubation with secondary antibodies for 1 hour and washing, bound secondary antibody was detected using chemiluminescent detection regent (GE Healthcare, catalog no. RPN 2209/AF).
# SK-BR-3 cells [2] = experiment: Proliferation assay (MTS), SK-BR-3; settings: 5 days
# Experimental: (§1) Cells were plated in 96 well plates at a density of 2,500 cells per well and incubated overnight. […] Antibodies were used at a concentration of 50 nM unless otherwise indicated. Dimethyl sulfoxide or phosphate buffered saline (PBS) were used as vehicle controls for lapatinib or HRG-β1/antibodies, respectively. After 5 days of incubation in a 37° C. 5% CO2 incubator, cell proliferation was quantitated using CellTiter 96 AQeous One Solution Proliferation Assay kit (Promega, catalog no. G3580) according to the manufacturer's instructions.
# BT-474 cells = experiment: Proliferation assay (MTS), BT-474; settings: 5 days
# Experimental: as §1
# HCC1419 cells = experiment: Proliferation assay (MTS), HCC1419; settings: 5 days
# Experimental: as §1
# [3] = 50 nM antibody + 1 μM lapatinib + heregulin 6.25 nM
# [4] = 50 nM antibody, no heregulin, no lapatinib
# [5] = 50 nM antibody + heregulin 6.25 nM
substance,measurement,setting,value
trastuzumab [reference compound],pAkt levels in the presence of heregulin,SK-BR-3 cells [1],no change
same,proliferation in the presence of heregulin and lapatinib,SK-BR-3 cells [2]; [3],did not reduce proliferation
same,proliferation,SK-BR-3 cells [2]; [4],higher anti-proliferative activity
same,proliferation in the presence of heregulin and lapatinib,BT-474 cells; [3],did not reduce proliferation
same,proliferation in the presence of heregulin,BT-474 cells; [5],ablated the inhibitory effects
same,proliferation,BT-474 cells; [4],higher anti-proliferative activity
same,proliferation in the presence of heregulin and lapatinib,HCC1419 cells; [3],did not reduce proliferation
same,proliferation in the presence of heregulin,HCC1419 cells; [5],ablated the inhibitory effects

# Source: patent publication US10519247B2, “Targeting HER2 and HER3 with bispecific antibodies in cancerous cells” (Board of Regents, The University of Texas System, priority 2013, dated 2019)
